The values that follow come from US8536172B2, “Inhibitors of JNK” (Roche Palo Alto LLC, priority 2009, dated 2013).

By UniProt entry, the sequences of proteins in these tests, tags left out. Where a name states a change or a piece, a line headed by the entry shows the natural chain unless it says otherwise. Chains listed by the source or under a name are the forms on record and can include a tag or linker.
UniProt P45983, other isoform, or with tags, fused parts or gaps: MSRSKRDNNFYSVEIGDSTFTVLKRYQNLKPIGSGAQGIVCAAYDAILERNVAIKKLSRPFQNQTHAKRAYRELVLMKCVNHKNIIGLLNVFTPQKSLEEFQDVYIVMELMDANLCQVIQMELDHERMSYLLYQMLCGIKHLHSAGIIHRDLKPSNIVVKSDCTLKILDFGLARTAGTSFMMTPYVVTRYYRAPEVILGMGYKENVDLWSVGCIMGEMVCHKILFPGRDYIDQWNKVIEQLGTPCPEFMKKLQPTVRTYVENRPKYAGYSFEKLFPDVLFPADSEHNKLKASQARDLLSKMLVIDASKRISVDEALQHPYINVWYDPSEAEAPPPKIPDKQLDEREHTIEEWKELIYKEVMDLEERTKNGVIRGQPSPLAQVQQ
UniProt P45984: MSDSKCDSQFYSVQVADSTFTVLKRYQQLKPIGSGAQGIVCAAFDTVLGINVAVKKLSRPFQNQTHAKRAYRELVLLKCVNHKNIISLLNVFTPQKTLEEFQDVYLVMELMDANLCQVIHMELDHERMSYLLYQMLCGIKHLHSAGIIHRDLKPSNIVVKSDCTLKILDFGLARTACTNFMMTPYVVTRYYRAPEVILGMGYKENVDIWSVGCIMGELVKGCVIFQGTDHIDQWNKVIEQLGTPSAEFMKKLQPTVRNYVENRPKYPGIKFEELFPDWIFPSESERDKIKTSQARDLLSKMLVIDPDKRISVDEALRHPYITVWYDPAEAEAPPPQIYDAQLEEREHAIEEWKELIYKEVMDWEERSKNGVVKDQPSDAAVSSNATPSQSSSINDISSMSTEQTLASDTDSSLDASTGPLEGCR

In general, IC50 refers to the point on the concentration scale where inhibition reaches its midpoint. Low readings indicate greater potency, high ones weaker potency.

One test addresses Human JNK1α1 (Homo sapiens (Human), UniProt P45983). Kind of test: JNK assay in vitro: phosphorylation of GST-ATF2 (19-96) with [γ-33P] ATP, JNK1. Conditions: 2 nM enzyme, 1 μM ATF2, 6 μM ATP (Km), 30° C. 30 min. Type of test: biochemical. Here is the method: JNK activity was measured by phosphorylation of GST-ATF2 (19-96) with [γ-^33P] ATP. […] Human JNK2α2 assay contains 1 nM enzyme, 1 μM ATF2, 8 μM ATP with 1 uCi [γ-^33P] ATP. Human JNK1α1 assay contains 2 nM enzyme, 1 μM ATF2, 6 μM ATP with 1 μCi [γ-^33P] ATP. […] ATP. The enzyme assay was carried out in the presence or absence of several compound concentrations. JNK and compound were pre-incubated for 10 min., followed by initiation of the enzymatic reaction by adding ATP and the substrate. The reaction mixture was incubated at 30° C. for 30 min. […] The incorporation of ^33P into ATF2 was quantified on a microplate scintillation counter (Packard Topcount). Compound inhibition potency on JNK was measured by IC50 value generated from ten concentration inhibition curves fitted into the 3-parameter model: % inhibition=Maximum/(1+(IC50/[Inhibitor])^slope). Data were analyzed on Microsoft Excel for parameter estimation.

The next test concerns the target Human JNK2α2 (Homo sapiens (Human), UniProt P45984). Kind of test: JNK assay in vitro: phosphorylation of GST-ATF2 (19-96) with [γ-33P] ATP, JNK2. Conditions: 1 nM enzyme, 1 μM ATF2, 8 μM ATP (Km), 30° C. 30 min. Type of test: biochemical. Here is the method:
JNK activity was measured by phosphorylation of GST-ATF2 (19-96) with [γ-^33P] ATP. […] Human JNK2α2 assay contains 1 nM enzyme, 1 μM ATF2, 8 μM ATP with 1 uCi [γ-^33P] ATP. Human JNK1α1 assay contains 2 nM enzyme, 1 μM ATF2, 6 μM ATP with 1 μCi [γ-^33P] ATP. Human JNK3 (Upstate Biotech #14-501M) assay contains 2 nM enzyme, 1 μM ATF2, 4 μM ATP with 1 μCi [γ-^33P] ATP. The enzyme assay was carried out in the presence or absence of several compound concentrations. JNK and compound were pre-incubated for 10 min., followed by initiation of the enzymatic reaction by adding ATP and the substrate. The reaction mixture was incubated at 30° C. for 30 min. At the end of incubation, the reaction was terminated by transferring 25 μl of the reaction mixture to 150 μl of 10% glutathione Sepharose® slurry (Amersham #27-4574-01) containing 135 mM EDTA. The reaction product was captured on the affinity resin, and washed on a filtration plate (Millipore, MABVNOB50) with phosphate buffered saline for six times to remove free radionucleotide. The incorporation of ^33P into ATF2 was quantified on a microplate scintillation counter (Packard Topcount). Compound inhibition potency on JNK was measured by IC50 value generated from ten concentration inhibition curves fitted into the 3-parameter model: % inhibition=Maximum/(1+(IC50/[Inhibitor])^slope). Data were analyzed on Microsoft Excel for parameter estimation.

Structures are written as SMILES.

As for `CS(=O)(=O)C1CCN(c2cccc3c2ccn3-c2ccnc(N[C@H]3CC[C@H](O)CC3)n2)CC1` [Compound I-12, 4-{4-[4-(4-Methanesulfonyl-piperidin-1-yl)-indol-1-yl]-pyrimidin-2-ylamino}-cyclohexanol], the IC50 is 0.0031 µM against Human JNK1α1 and 0.0179 µM on Human JNK2α2.

`CS(=O)(=O)C1CCN(c2cccc3c2ccn3-c2ccnc(N[C@H]3CC[C@](C)(O)CC3)n2)CC1` [Compound I-16, 4-{4-[4-(4-Methanesulfonyl-piperidin-1-yl)-indol-1-yl]-pyrimidin-2-ylamino}-1-methyl-cyclohexanol] had an IC50 against Human JNK2α2 of 0.066 µM.

Consider `CS(=O)(=O)C1CCN(c2cccc3c2ccn3-c2ccnc(N[C@H]3CC[C@@](C)(O)CC3)n2)CC1` [Compound I-17, 4-{4-[4-(4-Methanesulfonyl-piperidin-1-yl)-indol-1-yl]-pyrimidin-2-ylamino}-1-methyl-cyclohexanol], for which the results for the IC50 against Human JNK1α1 and on Human JNK2α2 were 0.0085 µM and 0.0477 µM, respectively.

Regarding `CCNC(=O)[C@H]1CC[C@H](Nc2nccc(-n3ccc4c(N5CCC(S(C)(=O)=O)CC5)cccc43)n2)CC1` [Compound I-19, 4-{4-[4-(4-Methanesulfonyl-piperidin-1-yl)-indol-1-yl]-pyrimidin-2-ylamino}-cyclohexanecarboxylic acid ethylamide], the figures for the IC50 at Human JNK1α1 and against Human JNK2α2 were 0.0061 µM and 0.0328 µM, respectively.

`CS(=O)(=O)C1CCN(c2cccc3c2ccn3-c2ccnc(N[C@H]3CC[C@@H](O)CC3)n2)CC1` [Compound I-62, 4-{4-[4-(4-Methanesulfonyl-piperidin-1-yl)-indol-1-yl]-pyrimidin-2-ylamino}-cyclohexanol] yielded an IC50 at Human JNK2α2 of 0.145 µM.
